Experiments:
[1] = biological target: cloned human NMB-preferring receptor (BB1) (Homo sapiens, UniProt P28336); assay: BB1 binding assay, [125I][Tyr4]bombesin competition on membranes of CHO-K1 cells; settings: read-out: BB1 IC50, Table 2, N-acyl derivatives of Intermediate VIa, 60 minutes
Excerpt: (§1) The compounds of the invention have been evaluated in receptor binding assays which measure their affinity in a cloned human NMB-preferring receptor (BB1) assay and in a cloned human GRP-preferring receptor (BB2) assay. […]
(§2) In the following experiments, measurement of BB1 and BB2 binding was as follows. CHO-K1 cells stably expressing cloned human NMB (for (BB1 assay) and GRP receptors (for BB2 assay) were routinely grown in Ham's F12 culture medium supplemented with 10% foetal calf serum and 2 mM glutamine. For binding experiments, cells were harvested by trypsinization, and stored frozen at −70° C. in Ham's F12 culture medium containing 5% DMSO until required. On the day of use, cells were thawed rapidly, diluted with an excess of culture medium, and centrifuged for 5 minutes at 2000 g. Cells were resuspended in 50 mM Tris-HCl assay buffer (pH 7.4 at 21° C., containing 0.02% BSA, […] bacitracin, […] chymostatin, […] leupeptin, and 2 mM phosphoramidon), counted, and polytronned (setting 5, 10 sec) before centrifuging for 10 minutes at 28,000 g. […] Radioactivity bound was determined using a gamma counter.
(§3) All competition data was analysed using nonlinear regression utilising iterative curve-plolting procedures in Prism® (GraphPad Software Inc., San Diego, USA). […]

Chains of the proteins cited; added tags and fusions are not shown.
UniProt P28336, whole entry: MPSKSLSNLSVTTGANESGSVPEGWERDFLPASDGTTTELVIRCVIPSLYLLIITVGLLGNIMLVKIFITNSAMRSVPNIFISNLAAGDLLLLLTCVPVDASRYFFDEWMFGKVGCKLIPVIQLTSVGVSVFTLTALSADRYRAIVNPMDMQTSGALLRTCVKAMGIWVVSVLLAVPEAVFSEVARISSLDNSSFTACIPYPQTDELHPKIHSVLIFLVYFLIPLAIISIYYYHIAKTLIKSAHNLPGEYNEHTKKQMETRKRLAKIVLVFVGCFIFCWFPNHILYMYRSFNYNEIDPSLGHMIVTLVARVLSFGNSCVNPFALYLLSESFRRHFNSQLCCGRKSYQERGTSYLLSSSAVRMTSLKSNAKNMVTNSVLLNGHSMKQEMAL
UniProt P30550, whole entry: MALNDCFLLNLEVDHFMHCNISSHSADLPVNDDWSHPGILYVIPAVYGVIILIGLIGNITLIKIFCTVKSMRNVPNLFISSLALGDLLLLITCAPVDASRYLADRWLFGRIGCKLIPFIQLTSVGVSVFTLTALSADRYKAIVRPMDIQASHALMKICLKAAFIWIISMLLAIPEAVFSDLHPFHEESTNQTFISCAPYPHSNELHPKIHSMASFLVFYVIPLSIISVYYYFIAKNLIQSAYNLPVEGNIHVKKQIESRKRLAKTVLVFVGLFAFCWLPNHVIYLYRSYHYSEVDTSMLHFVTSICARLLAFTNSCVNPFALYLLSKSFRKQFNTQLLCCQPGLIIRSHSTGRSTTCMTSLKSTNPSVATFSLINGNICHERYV

[2] = biological target: cloned human GRP-preferring receptor (BB2) (Homo sapiens, UniProt P30550); assay: BB2 binding assay, [125I][Tyr4]bombesin competition on membranes of CHO-K1 cells; settings: read-out: BB2 IC50, Table 2, N-acyl derivatives of Intermediate VIa, 90 minutes
Excerpt: as §1, §2, §3

IC50 [1] [µM]	IC50 [2] [µM]	SMILES
0.716	> 10	CN(C)c1ccccc1C(=O)N[C@@](C)(Cc1c[nH]c2ccccc12)C(=O)NCC1(c2ccccn2)CCCCC1
–	> 10	CN(C)c1cccc(C(=O)N[C@@](C)(Cc2c[nH]c3ccccc23)C(=O)NCC2(c3ccccn3)CCCCC2)c1

Reference: US20040116440A1, “Bombesin receptor antagonists” (priority 2000, published 2004)
